Values quoted from earlier work in patent publication US5723449A, “Methods and compositions for inhibiting uridine secretion” (priority 1996, dated 1998).

Test system: isolated cat brain
Details: cited from earlier work

Question: Which “corneal and pupillary reflexes” value (addition to the perfused media) does the source give for uridine and cytidine here?
Answer: The value was “return to normal”.

Question: What about the electrical activity (isolated brain perfused with simple blood medium, after cessation at about one hour) of the same substance?
Answer: Its electrical activity is “electrical activity is restored”.
